Experimental data: ChEMBL document CHEMBL6134888, “Challenging the "Undruggable"─Targeting STAT3 but Identifying Potent TrkA-Targeted Inhibitors” (J Med Chem, 2025)

Amino acid sequences for entries named in this document (tags omitted). A change or cut given only in a name is not applied to a line headed by its entry.
UniProt O60674: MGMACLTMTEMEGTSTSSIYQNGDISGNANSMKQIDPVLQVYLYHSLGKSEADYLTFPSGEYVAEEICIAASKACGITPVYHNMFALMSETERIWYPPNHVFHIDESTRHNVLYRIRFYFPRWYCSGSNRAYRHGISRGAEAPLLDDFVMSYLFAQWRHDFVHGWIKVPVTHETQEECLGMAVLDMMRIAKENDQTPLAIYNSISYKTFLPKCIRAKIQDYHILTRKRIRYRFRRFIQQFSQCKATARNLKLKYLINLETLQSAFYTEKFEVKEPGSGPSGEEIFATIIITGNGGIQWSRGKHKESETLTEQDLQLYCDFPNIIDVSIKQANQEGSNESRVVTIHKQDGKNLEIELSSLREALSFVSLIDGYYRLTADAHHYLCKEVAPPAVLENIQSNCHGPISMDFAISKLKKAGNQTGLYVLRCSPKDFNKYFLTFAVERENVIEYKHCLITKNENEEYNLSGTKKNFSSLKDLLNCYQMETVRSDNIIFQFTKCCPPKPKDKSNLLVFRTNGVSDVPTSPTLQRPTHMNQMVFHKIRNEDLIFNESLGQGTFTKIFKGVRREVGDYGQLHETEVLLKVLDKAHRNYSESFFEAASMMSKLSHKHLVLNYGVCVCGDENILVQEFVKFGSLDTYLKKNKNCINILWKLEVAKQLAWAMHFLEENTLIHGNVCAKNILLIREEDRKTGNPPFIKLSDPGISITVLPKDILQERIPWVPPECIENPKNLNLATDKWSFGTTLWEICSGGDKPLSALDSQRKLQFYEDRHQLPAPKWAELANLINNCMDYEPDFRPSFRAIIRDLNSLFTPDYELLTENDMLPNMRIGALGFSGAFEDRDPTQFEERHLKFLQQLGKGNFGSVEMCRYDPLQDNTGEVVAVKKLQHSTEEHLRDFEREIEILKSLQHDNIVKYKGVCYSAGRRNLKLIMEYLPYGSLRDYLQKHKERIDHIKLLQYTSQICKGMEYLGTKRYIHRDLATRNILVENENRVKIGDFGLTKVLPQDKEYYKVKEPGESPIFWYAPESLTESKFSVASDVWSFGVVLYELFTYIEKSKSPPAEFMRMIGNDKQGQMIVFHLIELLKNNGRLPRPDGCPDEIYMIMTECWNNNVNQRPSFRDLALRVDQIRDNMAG
UniProt P04629: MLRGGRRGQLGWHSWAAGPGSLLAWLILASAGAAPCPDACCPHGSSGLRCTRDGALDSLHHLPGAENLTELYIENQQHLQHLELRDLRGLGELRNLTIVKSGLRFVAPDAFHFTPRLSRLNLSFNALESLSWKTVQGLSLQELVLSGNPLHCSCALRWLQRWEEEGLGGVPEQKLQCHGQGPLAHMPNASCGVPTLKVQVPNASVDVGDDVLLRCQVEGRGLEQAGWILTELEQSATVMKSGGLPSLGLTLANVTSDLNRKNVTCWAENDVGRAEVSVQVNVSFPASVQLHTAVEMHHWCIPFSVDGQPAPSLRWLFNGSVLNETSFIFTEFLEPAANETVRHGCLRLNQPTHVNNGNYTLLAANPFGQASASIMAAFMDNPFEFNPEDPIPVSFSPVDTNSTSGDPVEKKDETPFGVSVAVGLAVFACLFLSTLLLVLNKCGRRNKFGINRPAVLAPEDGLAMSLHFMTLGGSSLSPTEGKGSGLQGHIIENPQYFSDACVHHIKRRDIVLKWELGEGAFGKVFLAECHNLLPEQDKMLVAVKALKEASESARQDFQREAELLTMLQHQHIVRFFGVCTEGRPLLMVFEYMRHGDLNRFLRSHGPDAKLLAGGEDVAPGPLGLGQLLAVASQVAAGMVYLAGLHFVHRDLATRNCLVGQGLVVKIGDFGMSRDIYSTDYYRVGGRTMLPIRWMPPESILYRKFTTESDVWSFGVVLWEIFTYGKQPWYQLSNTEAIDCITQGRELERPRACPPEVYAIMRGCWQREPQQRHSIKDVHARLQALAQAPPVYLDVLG
UniProt P11309, whole entry, looked up: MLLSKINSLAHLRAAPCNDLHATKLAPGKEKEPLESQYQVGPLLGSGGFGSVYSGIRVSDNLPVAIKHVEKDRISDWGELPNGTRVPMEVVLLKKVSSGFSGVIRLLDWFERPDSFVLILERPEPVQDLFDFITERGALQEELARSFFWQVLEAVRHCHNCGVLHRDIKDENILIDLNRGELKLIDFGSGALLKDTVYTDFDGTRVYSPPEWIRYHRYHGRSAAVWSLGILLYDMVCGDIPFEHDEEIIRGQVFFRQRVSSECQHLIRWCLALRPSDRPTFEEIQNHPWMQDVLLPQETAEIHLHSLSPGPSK
UniProt P00519, whole entry E255K: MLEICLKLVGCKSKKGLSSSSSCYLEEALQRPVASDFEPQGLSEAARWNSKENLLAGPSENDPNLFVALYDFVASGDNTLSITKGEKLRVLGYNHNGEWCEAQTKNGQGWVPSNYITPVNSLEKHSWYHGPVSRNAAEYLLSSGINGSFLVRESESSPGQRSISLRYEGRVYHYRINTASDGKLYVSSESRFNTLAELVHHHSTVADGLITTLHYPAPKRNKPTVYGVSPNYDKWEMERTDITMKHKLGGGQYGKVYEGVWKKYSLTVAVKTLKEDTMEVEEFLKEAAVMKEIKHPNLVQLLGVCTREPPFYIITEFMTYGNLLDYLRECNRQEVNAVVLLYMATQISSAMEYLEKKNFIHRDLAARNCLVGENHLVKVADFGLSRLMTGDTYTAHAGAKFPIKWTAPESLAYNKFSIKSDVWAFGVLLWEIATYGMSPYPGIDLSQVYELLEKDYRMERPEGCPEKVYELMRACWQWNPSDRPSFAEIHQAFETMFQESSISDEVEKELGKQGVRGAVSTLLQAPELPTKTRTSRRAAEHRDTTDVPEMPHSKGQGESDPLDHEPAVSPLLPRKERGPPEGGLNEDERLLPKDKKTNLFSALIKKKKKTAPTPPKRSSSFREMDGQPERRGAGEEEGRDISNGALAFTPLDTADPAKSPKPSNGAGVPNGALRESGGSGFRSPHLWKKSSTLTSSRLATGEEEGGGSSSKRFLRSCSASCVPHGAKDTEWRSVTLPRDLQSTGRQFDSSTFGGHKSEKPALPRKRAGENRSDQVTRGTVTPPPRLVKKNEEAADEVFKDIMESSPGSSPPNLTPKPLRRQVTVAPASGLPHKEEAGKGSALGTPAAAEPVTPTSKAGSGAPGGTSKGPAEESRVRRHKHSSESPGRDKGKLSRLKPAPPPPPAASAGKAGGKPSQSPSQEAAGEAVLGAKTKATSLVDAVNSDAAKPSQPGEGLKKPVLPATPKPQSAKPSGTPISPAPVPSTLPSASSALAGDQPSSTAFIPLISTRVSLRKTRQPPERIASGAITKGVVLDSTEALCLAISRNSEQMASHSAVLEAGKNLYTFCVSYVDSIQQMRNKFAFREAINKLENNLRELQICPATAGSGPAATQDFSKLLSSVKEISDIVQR
UniProt P00519, whole entry: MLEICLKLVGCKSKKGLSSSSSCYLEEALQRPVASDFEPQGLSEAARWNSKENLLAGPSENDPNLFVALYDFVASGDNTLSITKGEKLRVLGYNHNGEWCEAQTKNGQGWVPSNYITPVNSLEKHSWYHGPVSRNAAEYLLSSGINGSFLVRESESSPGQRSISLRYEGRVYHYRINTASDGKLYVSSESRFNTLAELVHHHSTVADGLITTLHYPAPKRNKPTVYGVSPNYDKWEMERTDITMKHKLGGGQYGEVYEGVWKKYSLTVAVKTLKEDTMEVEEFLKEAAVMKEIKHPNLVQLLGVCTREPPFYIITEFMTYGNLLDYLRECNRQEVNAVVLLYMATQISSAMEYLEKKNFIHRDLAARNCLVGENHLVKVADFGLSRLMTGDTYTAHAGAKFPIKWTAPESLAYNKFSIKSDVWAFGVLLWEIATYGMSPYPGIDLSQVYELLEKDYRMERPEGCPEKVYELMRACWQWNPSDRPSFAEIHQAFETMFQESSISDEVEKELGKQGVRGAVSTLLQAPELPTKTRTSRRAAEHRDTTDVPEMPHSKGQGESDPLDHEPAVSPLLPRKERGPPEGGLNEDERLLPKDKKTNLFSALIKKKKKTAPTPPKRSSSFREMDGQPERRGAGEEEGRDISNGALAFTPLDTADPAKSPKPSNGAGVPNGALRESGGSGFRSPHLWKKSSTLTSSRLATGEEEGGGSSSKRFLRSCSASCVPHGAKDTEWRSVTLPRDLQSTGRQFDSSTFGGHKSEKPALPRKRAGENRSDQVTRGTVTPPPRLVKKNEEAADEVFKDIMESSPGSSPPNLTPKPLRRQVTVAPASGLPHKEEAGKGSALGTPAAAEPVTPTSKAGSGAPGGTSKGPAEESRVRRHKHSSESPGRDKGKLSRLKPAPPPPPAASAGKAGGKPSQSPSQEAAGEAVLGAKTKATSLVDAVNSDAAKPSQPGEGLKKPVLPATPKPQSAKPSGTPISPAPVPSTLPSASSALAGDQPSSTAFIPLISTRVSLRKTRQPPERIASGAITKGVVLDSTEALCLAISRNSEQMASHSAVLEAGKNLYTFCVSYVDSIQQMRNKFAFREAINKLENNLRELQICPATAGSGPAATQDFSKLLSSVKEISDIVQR
UniProt Q9H093: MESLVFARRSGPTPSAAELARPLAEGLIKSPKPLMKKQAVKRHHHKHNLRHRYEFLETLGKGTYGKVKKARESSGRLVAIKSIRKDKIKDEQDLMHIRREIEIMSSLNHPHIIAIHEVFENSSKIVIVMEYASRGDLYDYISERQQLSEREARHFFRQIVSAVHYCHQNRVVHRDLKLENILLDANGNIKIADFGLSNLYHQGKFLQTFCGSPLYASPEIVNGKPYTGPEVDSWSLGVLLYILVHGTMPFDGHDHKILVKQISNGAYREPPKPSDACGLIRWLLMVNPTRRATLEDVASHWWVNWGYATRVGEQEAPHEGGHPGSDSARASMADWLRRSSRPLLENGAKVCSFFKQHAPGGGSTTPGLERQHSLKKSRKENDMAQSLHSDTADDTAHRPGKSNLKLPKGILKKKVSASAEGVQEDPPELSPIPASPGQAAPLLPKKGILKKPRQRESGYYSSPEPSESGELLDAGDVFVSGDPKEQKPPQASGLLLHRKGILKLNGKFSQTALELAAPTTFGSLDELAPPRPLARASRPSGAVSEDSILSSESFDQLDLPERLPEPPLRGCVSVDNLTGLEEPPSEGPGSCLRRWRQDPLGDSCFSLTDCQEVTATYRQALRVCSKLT
UniProt P49137, whole entry, looked up: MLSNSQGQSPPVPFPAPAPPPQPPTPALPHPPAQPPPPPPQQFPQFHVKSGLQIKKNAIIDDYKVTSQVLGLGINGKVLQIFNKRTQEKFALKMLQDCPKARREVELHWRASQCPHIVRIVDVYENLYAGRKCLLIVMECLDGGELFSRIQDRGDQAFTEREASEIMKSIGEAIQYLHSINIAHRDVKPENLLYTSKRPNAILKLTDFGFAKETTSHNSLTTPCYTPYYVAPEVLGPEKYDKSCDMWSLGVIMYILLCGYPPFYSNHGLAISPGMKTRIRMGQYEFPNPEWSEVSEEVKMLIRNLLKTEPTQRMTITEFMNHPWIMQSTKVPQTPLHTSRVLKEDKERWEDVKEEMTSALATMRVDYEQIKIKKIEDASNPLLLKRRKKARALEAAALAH
UniProt P29317, whole entry: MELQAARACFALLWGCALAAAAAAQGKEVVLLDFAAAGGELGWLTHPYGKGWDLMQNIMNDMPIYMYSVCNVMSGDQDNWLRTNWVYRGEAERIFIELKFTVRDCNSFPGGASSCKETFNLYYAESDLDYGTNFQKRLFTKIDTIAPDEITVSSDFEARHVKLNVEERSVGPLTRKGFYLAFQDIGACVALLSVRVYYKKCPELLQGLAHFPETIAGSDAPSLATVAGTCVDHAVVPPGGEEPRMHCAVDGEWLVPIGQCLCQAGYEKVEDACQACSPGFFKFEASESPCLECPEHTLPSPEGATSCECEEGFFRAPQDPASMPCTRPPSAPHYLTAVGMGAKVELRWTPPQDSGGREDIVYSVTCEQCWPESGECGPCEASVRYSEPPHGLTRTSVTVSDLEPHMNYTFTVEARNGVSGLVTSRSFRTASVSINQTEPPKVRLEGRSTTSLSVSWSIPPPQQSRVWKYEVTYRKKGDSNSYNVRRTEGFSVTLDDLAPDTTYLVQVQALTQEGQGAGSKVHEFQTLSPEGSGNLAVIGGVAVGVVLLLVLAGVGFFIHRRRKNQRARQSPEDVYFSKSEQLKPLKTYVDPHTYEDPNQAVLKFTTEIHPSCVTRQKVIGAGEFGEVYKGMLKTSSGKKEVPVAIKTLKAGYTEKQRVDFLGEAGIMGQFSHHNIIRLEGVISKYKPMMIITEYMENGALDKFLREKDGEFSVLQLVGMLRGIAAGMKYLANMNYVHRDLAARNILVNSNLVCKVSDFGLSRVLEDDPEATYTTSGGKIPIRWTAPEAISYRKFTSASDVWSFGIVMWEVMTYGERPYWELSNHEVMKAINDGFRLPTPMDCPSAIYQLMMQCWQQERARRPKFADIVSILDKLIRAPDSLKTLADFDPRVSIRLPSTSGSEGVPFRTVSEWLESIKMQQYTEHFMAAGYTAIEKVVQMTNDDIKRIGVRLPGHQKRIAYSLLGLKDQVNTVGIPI

Assays:
[1] = molecular target: Platelet-derived growth factor receptor beta (Homo sapiens) (UniProt P09619); assay: Inhibition of PDGFRB (unknown origin) at 25 uM by scanEDGE kinase assay relative to control
[2] = molecular target: Rho-associated protein kinase 2 (Homo sapiens) (UniProt O75116); assay: Inhibition of ROCK2 (unknown origin) at 25 uM by scanEDGE kinase assay relative to control
[3] = molecular target: Tyrosine-protein kinase JAK2 (Homo sapiens, UniProt O60674); assay: Inhibition of JAK2 (unknown origin) at 25 uM by scanEDGE kinase assay relative to control
[4] = molecular target: Macrophage colony-stimulating factor 1 receptor (Homo sapiens) (UniProt P07333); assay: Inhibition of CSF1R (unknown origin) at 25 uM by scanEDGE kinase assay relative to control
[5] = molecular target: Tyrosine-protein kinase JAK3 (Homo sapiens) (UniProt P52333); assay: Inhibition of JAK3 (unknown origin) at 25 uM by scanEDGE kinase assay relative to control
[6] = molecular target: High affinity nerve growth factor receptor (Homo sapiens, UniProt P04629); assay: Inhibition of TRKA (unknown origin) at 25 uM by scanEDGE kinase assay relative to control
[7] = molecular target: Epidermal growth factor receptor (Homo sapiens) (UniProt P00533); assay: Inhibition of EGFR (unknown origin) at 25 uM by scanEDGE kinase assay relative to control
[8] = molecular target: Receptor-type tyrosine-protein kinase FLT3 (Homo sapiens, UniProt P36888); assay: Inhibition of FLT3 (unknown origin) at 25 uM relative to control
[9] = molecular target: ALK tyrosine kinase receptor (Homo sapiens) (UniProt Q9UM73); assay: Inhibition of ALK (unknown origin) at 25 uM by scanEDGE kinase assay relative to control
[10] = molecular target: Proto-oncogene tyrosine-protein kinase Src (Homo sapiens, UniProt P12931); assay: Inhibition of SRC (unknown origin) at 25 uM by scanEDGE kinase assay relative to control
[11] = molecular target: Serine/threonine-protein kinase pim-1 (Homo sapiens) (UniProt P11309); assay: Inhibition of PIM1 (unknown origin) at 25 uM by scanEDGE kinase assay relative to control
[12] = molecular target: Focal adhesion kinase 1 (Homo sapiens) (UniProt Q05397); assay: Inhibition of FAK (unknown origin) at 25 uM by scanEDGE kinase assay relative to control
[13] = test system: Tyrosine-protein kinase ABL1 (Homo sapiens), P00519 [E255K]; assay: Inhibition of ABL1 E255K mutant (unknown origin) at 25 uM by scanEDGE kinase assay relative to control
[14] = molecular target: NUAK family SNF1-like kinase 2 (Homo sapiens) (UniProt Q9H093); assay: Inhibition of SNARK (unknown origin) at 25 uM by scanEDGE kinase assay relative to control
[15] = molecular target: Mast/stem cell growth factor receptor Kit (Homo sapiens) (UniProt P10721); assay: Inhibition of KIT (unknown origin) at 25 uM by scanEDGE kinase assay relative to control
[16] = molecular target: Tyrosine-protein kinase ABL1 (Homo sapiens, UniProt P00519); assay: Inhibition of ABL1 (unknown origin) at 25 uM by scanEDGE kinase assay relative to control
[17] = molecular target: MAP kinase-activated protein kinase 2 (Homo sapiens, UniProt P49137); assay: Inhibition of MK2 (unknown origin) at 25 uM relative to control
[18] = molecular target: MAP/microtubule affinity-regulating kinase 3 (Homo sapiens) (UniProt P27448); assay: Inhibition of MARK3 (unknown origin) at 25 uM by scanEDGE kinase assay relative to control
[19] = molecular target: Ephrin type-A receptor 2 (Homo sapiens) (UniProt P29317); assay: Inhibition of EPHA2 (unknown origin) at 25 uM by scanEDGE kinase assay relative to control
[20] = molecular target: Non-receptor tyrosine-protein kinase TYK2 (Homo sapiens) (UniProt P29597); assay: Inhibition of TYK2 (unknown origin) at 25 uM by scanEDGE kinase assay relative to control
[21] = test system: Epidermal growth factor receptor (Homo sapiens), P00533 [L858R]; assay: Inhibition of EGFR L858R mutant (unknown origin) at 25 uM by scanEDGE kinase assay relative to control

inhibition [1]: 55% | inhibition [2]: 49% | inhibition [3]: 96% | inhibition [4]: 79% | inhibition [5]: 50% | inhibition [6]: 99.9% | inhibition [7]: 40% | inhibition [8]: 17% | inhibition [9]: 83% | inhibition [10]: 97.5% | inhibition [11]: 57% | inhibition [12]: 74% | inhibition [13]: 90.8% | inhibition [14]: 51% | inhibition [15]: 77% | inhibition [16]: 90.9% | inhibition [17]: 11% | inhibition [18]: 40% | inhibition [19]: 67% | inhibition [20]: 49% | inhibition [21]: 54%
Compound: CC(Nc1nc(-c2cccc(N(C)C)c2)cnc1N)c1ccccc1 (racemic)
